# Measured values as given in patent publication US9572850B2, “Use of cajeput and Pimenta racemosa extract for treating parasitic infestation of fish” (Mars, Incorporated, priority 2009, dated 2017).
# Tested on: juvenile guppies each infected with 10-40 individuals of G. turnbulli
# Test: Host mortality / toxicity to fish in Trial 3
# Details: shoals of 3 juvenile guppies, daily treatment for 7 days, low number of replicates
smiles,measurement,value
"C=CCSSCC=C [Allyl disulphide, allyl disulphide]",Host mortalities (%) Trial 3,33%
